How the values were obtained:
Fisher 344 rats = assay: In vivo Matrigel plug assay (subcutaneous implant); conditions: single agent in Matrigel, 14 days
Procedure: In vivo Matrigel™ plug assay. The in vivo model involved subcutaneous implant in young adult Fisher 344 of growth factor-reduced Matrigel with and without BMP-2 and B2A2. Animals were anesthetized before all procedures by intra peritoneal injections of ketamine (50 mg/kg) and xylazine (5 mg/kg). Growth factor reduced Matrigel™ at 4° C. (liquid state) was mixed with saline (control), BMP-2 (R&D Systems, Minneapolis, Minn.), B2A2-K-NS, or B2A2-K-NS plus BMP-2. Aliquots of 0.5 mL of Matrigel™ with additives as above were injected subcutaneously on the upper flanks of the rats. The injection sites were clipped with stainless steel clips to prevent leakage. The Matrigel™ was kept on ice until the time of injection, as were the needle and syringe (to prevent gelling in the needle). The animals were subsequently euthanized after 14 days, the gel surgically removed, measured with calipers, and fixed in buffered formalin.
The fixed specimens were processed for histological examination and stained with either hemotoxylin and eosin or toluidine blue O (Histoserv, Inc., Germantown, Md.).
B2A2-K-NS analog was tested for its effect in vivo. Referring now to FIG. 9, a comparison of the area of explants excised from an area implanted with Matrigel™ containing B2A2-K-NK analog with and without BMP-2 is illustrated. Adult rats were implanted with Matrigel™ with and without BMP-2 and B2A2-K-NS and after 14 days the residual gel was surgically removed and measured. […] The morphology of the explants differed with differing explant compositions. Animals receiving only carrier had residual plugs that were small and tended to have morphology with poor cellular organization.

C3H10T½ cells = assay: Alkaline phosphatase (ALP) activity assay in C3H10T½ cells; format: cell-based, Murine; conditions: BMP-2 alone
Procedure: Alkaline phosphatase (ALP) Activity Assay. C2C12 cells and C3H10T½ cells were cultured at 37° C. in a humidified atmosphere of 5% CO2 and 95% air, with DMEM/F12 medium supplemented with 10% serum, penicillin/streptomycin. For the BMP-2 induced ALP assay, cells were plated in 96-well (1×10^4/well) dishes in regular growth medium. Twenty-four hours later, when the cells formed a confluent monolayer, medium was replaced with DMEM/F12, supplemented with 2% serum and containing indicated concentration of BMP-2 and/or B2A2. At 4-5 days post induction, ALP activity was determined as described by Akiyama and colleagues (Akiyama et al. 1997, Exp Cell Res 235(2):362-9.) with modifications. Briefly, cells were washed once with phosphate-buffered saline (PBS) and lysed with 0.1% Triton×100 in 10 mM Tris HCl, pH 9.0. Protein concentration was determined using the BCA Protein Assay Kit (Pierce Biotechnology, Rockford, Ill.). Then ALP activity was measured by adding ALP buffer (1 M diethanolamine, 0.5 mM MgCl2, 1 mg/mL p-nitrophenylphosphate, pH 9.0), incubating in 37° C., and absorbance (405 nm) read at 15, 30 and 60 minutes using a microplate spectrophotometer (Molecular Devices, Sunnyvale, Calif.). The activity was expressed as O.D. per mg protein per hour. […]

“BMP-2: E. coli or Chinese hamster ovary (CHO) cell-derived recombinant human BMP-2 from R&D Systems” was tested, and the “morphology of the explants (histology)” value (Fisher 344 rats) was “increased numbers of cells accompanied by a moderate amount of organization that was consistent with developing membranous ossification”, the “palpable implant sites upon inspection” value (Fisher 344 rats) was “Nearly all of the implant sites” and the “size (area) of explants versus carrier only” value (Fisher 344 rats) was “significantly larger explants”. The “threshold for BMP-2 induction of ALP” value (C3H10T½ cells) was about 30 ng/mL and the “EC50 for BMP-2” value (C3H10T½ cells; ALP induction) was about 0.3 µg/mL.

From US7482427B2, “Positive modulator of bone morphogenic protein-2” (BioSurface Engineering Technologies, Inc., priority 2002, dated 2009)
